Experiment: Antiproliferative activity against human U373 cells
Format: functional, cell-based, U-373MG ATCC
Conditions: U373 MG

Work on `NS(=O)(=O)c1cccc2c1C(=O)c1cccc(O)c1C2=O` yielded an IC50 of 860 nM.
